This is an account of results in patent US9102669B2, “Substituted piperidinyl-pyridazinyl derivatives useful as SCD 1 inhibitors” (Janssen Pharmaceutica NV, priority 2011, dated 2015).

Sequences of proteins named here, by UniProt entry; tags and fusion partners are left off.
UniProt P07308, whole entry: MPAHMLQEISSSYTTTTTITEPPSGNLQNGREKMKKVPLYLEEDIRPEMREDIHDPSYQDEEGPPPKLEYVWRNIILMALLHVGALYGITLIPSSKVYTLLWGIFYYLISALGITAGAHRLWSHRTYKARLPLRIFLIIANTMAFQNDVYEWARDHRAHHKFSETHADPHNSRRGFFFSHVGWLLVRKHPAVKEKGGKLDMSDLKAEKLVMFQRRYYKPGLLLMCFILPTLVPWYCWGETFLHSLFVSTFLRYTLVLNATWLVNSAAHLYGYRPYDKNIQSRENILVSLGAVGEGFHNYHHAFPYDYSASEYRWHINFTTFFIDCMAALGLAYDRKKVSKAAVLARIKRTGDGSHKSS
UniProt O00767, whole entry: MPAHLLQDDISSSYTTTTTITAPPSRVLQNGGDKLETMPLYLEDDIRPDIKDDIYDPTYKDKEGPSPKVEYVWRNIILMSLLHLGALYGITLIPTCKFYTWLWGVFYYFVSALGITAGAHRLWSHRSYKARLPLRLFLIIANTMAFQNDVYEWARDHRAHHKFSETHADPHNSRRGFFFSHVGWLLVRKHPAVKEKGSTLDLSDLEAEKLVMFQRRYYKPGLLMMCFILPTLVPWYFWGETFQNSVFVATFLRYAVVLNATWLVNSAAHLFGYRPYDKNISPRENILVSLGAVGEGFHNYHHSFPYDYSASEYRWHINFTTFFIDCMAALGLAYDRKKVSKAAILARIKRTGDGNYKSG

Test [1] deals with SCD1 (Rattus norvegicus (Rat), UniProt P07308). The test is described as follows: SCD1 enzymatic assay in rat liver microsomes (RLM). The class given is biochemical.
The target in test [2] is T1, SCD1 (Homo sapiens (Human), UniProt O00767). Briefly: SCD1 13C-palmitic acid assay in A431 cells. Type of test: cell-based. The following applies: read-out: A431 cells 13C-PA IC50.
Test [3] concerns the target T1, SCD1. The test is described as follows: SCD1 14C-palmitate assay in A431 cells. The class given is cell-based. The following applies: read-out: A431 cells 14C-PA IC50.

Like-named read-outs stand apart in the source and are kept apart here.

The term IC50 denotes the point on the concentration scale where inhibition reaches its midpoint. As for `COc1ccc(-c2ccc(N3CCC(c4noc5ccc(F)cc45)CC3)nn2)cn1`, on SCD1 [1], the “% Inh.@ 1 μM” value was determined as 100% and the half-inhibitory concentration (IC50) worked out at 7 nM. The concentration for half-maximal inhibition (IC50) at SCD1 [2] came out at 4 nM.

As for `OCc1cn(-c2ccc(N3CCC(c4noc5ccc(F)cc45)CC3)nn2)cn1`, the results for the half-inhibitory concentration (IC50) on SCD1 [3] and on SCD1 [1] (rat liver microsomes) were 40 nM and 52 nM, respectively. Further, the “% Inh.@ 1 μM” value on SCD1 [1] (1 μM test compound, rat liver microsomes) amounted to 96%.
